This is an account of results in PubChem BioAssay AID1416 (The Scripps Research Institute Molecular Screening Center, 2008).

Amino acid sequences for entries named in this document (tags omitted).
UniProt Q9NZJ5, whole entry: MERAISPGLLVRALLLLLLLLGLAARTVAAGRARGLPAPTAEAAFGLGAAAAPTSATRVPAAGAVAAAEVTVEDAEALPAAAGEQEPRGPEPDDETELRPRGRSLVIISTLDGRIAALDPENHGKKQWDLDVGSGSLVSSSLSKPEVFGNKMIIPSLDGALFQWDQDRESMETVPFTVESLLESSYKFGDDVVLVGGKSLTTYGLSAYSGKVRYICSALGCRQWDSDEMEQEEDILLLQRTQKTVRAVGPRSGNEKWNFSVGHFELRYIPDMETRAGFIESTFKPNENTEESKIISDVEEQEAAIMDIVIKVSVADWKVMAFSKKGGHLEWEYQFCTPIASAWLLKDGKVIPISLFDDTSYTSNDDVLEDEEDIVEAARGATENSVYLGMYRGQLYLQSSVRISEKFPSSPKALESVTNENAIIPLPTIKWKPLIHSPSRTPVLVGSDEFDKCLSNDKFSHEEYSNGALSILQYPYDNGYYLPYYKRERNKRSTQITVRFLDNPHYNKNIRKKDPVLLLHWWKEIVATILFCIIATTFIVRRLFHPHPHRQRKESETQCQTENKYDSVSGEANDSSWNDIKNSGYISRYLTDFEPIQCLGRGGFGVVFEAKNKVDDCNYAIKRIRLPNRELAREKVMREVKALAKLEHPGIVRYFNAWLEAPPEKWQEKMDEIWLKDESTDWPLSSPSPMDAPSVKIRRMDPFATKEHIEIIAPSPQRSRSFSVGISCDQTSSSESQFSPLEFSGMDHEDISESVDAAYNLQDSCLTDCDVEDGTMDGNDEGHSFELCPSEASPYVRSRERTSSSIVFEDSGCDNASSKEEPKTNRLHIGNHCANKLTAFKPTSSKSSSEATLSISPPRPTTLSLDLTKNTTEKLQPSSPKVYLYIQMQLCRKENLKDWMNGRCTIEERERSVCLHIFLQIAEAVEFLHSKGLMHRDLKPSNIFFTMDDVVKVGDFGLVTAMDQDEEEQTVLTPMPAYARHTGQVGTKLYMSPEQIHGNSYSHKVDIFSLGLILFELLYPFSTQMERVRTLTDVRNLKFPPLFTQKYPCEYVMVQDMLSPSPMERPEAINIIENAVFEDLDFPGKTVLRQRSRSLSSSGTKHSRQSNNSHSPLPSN

The entries are a selection whose mix differs from that of the whole data set. Active and inactive are the calls of the source.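 How the source made its calls: active means inhibition above the mean inhibition of all tested compounds plus 3 SD, set separately per screening campaign (cut at about 2.9% in these data); inactive means the rest.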

This experiment addresses Eukaryotic translation initiation factor 2-alpha kinase 3 (Homo sapiens) (UniProt Q9NZJ5). In words: block of dimerizer-induced PERK translation repression, primary screen, PERK inhibitor project, CHO PERK-DD cells, SEAP luminescence, HTS (AID 1416).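 Further: PERK kinase domain activated by AP20187 dimerizer at 100 nM; 0% = DMSO with dimerizer and 100% = rapamycin at 8.4 µM.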 The conditions noted are these: CHO PERK-DD fusion, SEAP luminescence translation reporter; at 5.6 µM; stronger effect = higher value.
On to `COc1cc(OC)cc(C(=O)NCC2(N3CCOCC3)CCCCC2)c1`, for which the inhibition – broadly, the relative decrease from the control value, in per cent – is inactive: -0.24%. Regarding `CCC(CO)(C(=O)OC1CN2CCC1CC2)c1ccccc1` (centres undefined), the inhibition was inactive: -0.62%. On to `CCCOc1ccc(C)cc1CN(CCCl)CCCl`, for which the inhibition is inactive: 1.79%. As to `CCOc1ncccc1C(=O)NCC1(N2CCOCC2)CCCCC1`, the inhibition was inactive: -1.31%. For `CC(C)(C)OC(=O)N1CCC(Nc2ccccc2)CC1` the value was inactive: -0.17%; for `CCN1CCC(Nc2cccc(F)c2)CC1`, inactive: 0.13%.

With `CN(C)c1ccc(C(=O)NCC2(N3CCCCC3)CCCCC2)cc1`, the inhibition was inactive: 0.21%. Take `c1ccc(CN2CCC(Nc3ccccc3)CC2)cc1`: the inhibition is inactive: 0.72%. On to `N#Cc1ccc(C(=O)NCC2(N3CCCCC3)CCCCC2)cc1`, for which the inhibition was inactive: 0.35%. `N/C(=N\O)c1c(N)no[n+]1[O-]`: the inhibition is inactive: 0.79%.

Take `O=C(OC1CN2CCC1CC2)C1c2ccccc2C=Cc2ccccc21` (centres undefined): the inhibition was inactive: -1.94%. In the case of `COc1ccc(C(=O)NCC2(N3CCOCC3)CCCCC2)cc1OC`, the inhibition was inactive: 0.55%. In the case of `CN1CCC(Nc2cccc(F)c2)CC1`, the inhibition was inactive: 2.02%. Consider `CC(C)c1ccc(NC2CCN(C(=O)OC(C)(C)C)CC2)cc1`, for which the inhibition is inactive: -0.22%. Regarding `COc1ccc(CN(CCCl)CCCl)cc1Cl`, the inhibition was inactive: 0.54%. Turning to `CN(C)c1cccc(C(=O)NCC2(N3CCCCC3)CCCCC2)c1`, the inhibition is inactive: 0%. Regarding `O=C(NCC1(N2CCOCC2)CCCCC1)c1cc(=O)[nH]c2ccccc12`, the inhibition was inactive: 0.52%. Regarding `CN1CCN(CCOC(=O)C(O)(c2ccccc2)c2ccccc2)CC1`, the inhibition was inactive: 0.68%.

For `COc1ccc(NC2CCN(C(=O)OC(C)(C)C)CC2)cc1`, the inhibition was inactive: -0.07%. For `N#CC1(Nc2ccccc2)CCN(CCc2ccccc2)CC1` the value was inactive: -0.64%; for `O=C(NCC1(N2CCCCC2)CCCCC1)c1cccc([N+](=O)[O-])c1`, inactive: -0.67%. Turning to `Cc1ccc(OCC(C)C)c(CN(CCCl)CCCl)c1`, the inhibition was inactive: 0.77%. For `CCOc1ccc(C)cc1CN(CCCl)CCCl` the value was inactive: 1.6%. For `COc1ccc(NC2CCN(CCc3ccccc3)CC2)c(OC)c1` the value was inactive: -0.42%; for `O=C(NCC1(N2CCOCC2)CCCCC1)c1cc2ccccc2o1`, inactive: -1.19%. Take `O=C(OC1CN2CCC1CC2)C1c2ccccc2Oc2ccccc21` (centres undefined): the inhibition was inactive: -0.55%. The value for `N#CC1(Nc2ccccc2)CCN(Cc2ccccc2)CC1` was inactive: 1.82%; that for `CCOC(=O)N1CCC(Nc2ccc(OC)cc2)CC1` was inactive: 1.18%.

On to `COc1ccc(C(=O)NCC2(N3CCCCC3)CCCCC2)c(OC)c1OC`, for which the inhibition was inactive: 1.29%.
